Measured values reported in publication PMC4869338, “Pre-clinical evaluation of CYP 2D6 dependent drug–drug interactions between primaquine and SSRI/SNRI antidepressants” (Malaria Journal, 2016).

Tests used:
[1] = test system: Plasmodium berghei sporozoites; conditions: P. berghei infected mice; day 31; primaquine 20 mg/kg/day for 3 days; fluoxetine 4 mg/kg/day for 5 days where given; five mice per group
[2] = test system: primary human hepatocytes; assay: Primaquine metabolism in pooled primary human hepatocytes pre-treated with antidepressants; type: in vitro ADME; conditions: primaquine 1 μM, 4-h incubation, no SSRI/SNRI pre-treatment
Method: Cryopreserved, pooled, human, primary hepatocytes were flash thawed in a 37 °C bath for 1 min. One vial of the thawed hepatocytes (5 million cells/vial) was added to 40 ml of pre-warmed thawing buffer, mixed thoroughly by gentle pipetting, and centrifuged at 72×g for 6 min. The supernatant was then aspirated and the pellet resuspended in hepatocyte incubation buffer (InVitroGRO HI media, BioreclamationIVT, Baltimore, MD, USA). The hepatocytes were then seeded onto 12-well culture plates, approximately 7 × 10^5 hepatocytes/ml per well, and incubated in a humidified 5 % CO2/95 % air incubator for 30 min prior to the addition of compounds.
Primaquine metabolism with primary, human, hepatocyte culture was conducted according to the methods published by Jin et al.. Antidepressant compounds (final concentration of 10 μM) were pre-incubated with hepatocyte culture plates for 15 min prior to treatment with primaquine at 37 °C. Following the addition of primaquine (final concentration of 1 μM), aliquots (150 μl) were collected at 0 and 240 min; 240-min incubations were chosen for hepatocyte studies because of the robust primaquine metabolism signal observed on this timescale as previously reported (~40 % [5]). All reactions were stopped by adding an equal volume of acetonitrile. […] Samples were analysed immediately after sample collection.

CYP2C19 = conditions: cited from earlier work
CYP1A2 = conditions: cited from earlier work
CYP2D6 = conditions: cited from earlier work
CYP3A4 = conditions: cited from earlier work

| SMILES | mice surviving the duration of the experiment [1] | relative per cent primaquine remaining [2] | Enzymes inhibited by antidepressant: CYP2C19 (CYP2C19) | Enzymes inhibited by antidepressant: CYP1A2 (CYP1A2) | Enzymes inhibited by antidepressant: CYP2D6 (CYP2D6) | Enzymes inhibited by antidepressant: CYP3A4 (CYP3A4) |
| --- | --- | --- | --- | --- | --- | --- |
| COc1cc(NC(C)CCCN)c2ncccc2c1 (stereo not drawn) [primaquine] | 5/5 | 60% |  |  |  |  |
| CN[C@H]1CC[C@@H](c2ccc(Cl)c(Cl)c2)c2ccccc21 [sertraline] |  |  | CYP2D6 (weak to moderate), CYP1A2 (weak), CYP2C9 (weak), CYP2C19 (weak), CYP3A4 (weak) | CYP2D6 (weak to moderate), CYP1A2 (weak), CYP2C9 (weak), CYP2C19 (weak), CYP3A4 (weak) | CYP2D6 (weak to moderate), CYP1A2 (weak), CYP2C9 (weak), CYP2C19 (weak), CYP3A4 (weak) | CYP2D6 (weak to moderate), CYP1A2 (weak), CYP2C9 (weak), CYP2C19 (weak), CYP3A4 (weak) |
